Laboratory results as given in patent US20090326001A1, “THIENOPYRIDINE DERIVATIVES AS MODULATORS OF METABOTROPIC GLUTAMATE RECEPTORS” (priority 2005, published 2009).

Amino acid sequences for entries named in this document (tags omitted). Residues count along the entry.
UniProt P31424, whole entry: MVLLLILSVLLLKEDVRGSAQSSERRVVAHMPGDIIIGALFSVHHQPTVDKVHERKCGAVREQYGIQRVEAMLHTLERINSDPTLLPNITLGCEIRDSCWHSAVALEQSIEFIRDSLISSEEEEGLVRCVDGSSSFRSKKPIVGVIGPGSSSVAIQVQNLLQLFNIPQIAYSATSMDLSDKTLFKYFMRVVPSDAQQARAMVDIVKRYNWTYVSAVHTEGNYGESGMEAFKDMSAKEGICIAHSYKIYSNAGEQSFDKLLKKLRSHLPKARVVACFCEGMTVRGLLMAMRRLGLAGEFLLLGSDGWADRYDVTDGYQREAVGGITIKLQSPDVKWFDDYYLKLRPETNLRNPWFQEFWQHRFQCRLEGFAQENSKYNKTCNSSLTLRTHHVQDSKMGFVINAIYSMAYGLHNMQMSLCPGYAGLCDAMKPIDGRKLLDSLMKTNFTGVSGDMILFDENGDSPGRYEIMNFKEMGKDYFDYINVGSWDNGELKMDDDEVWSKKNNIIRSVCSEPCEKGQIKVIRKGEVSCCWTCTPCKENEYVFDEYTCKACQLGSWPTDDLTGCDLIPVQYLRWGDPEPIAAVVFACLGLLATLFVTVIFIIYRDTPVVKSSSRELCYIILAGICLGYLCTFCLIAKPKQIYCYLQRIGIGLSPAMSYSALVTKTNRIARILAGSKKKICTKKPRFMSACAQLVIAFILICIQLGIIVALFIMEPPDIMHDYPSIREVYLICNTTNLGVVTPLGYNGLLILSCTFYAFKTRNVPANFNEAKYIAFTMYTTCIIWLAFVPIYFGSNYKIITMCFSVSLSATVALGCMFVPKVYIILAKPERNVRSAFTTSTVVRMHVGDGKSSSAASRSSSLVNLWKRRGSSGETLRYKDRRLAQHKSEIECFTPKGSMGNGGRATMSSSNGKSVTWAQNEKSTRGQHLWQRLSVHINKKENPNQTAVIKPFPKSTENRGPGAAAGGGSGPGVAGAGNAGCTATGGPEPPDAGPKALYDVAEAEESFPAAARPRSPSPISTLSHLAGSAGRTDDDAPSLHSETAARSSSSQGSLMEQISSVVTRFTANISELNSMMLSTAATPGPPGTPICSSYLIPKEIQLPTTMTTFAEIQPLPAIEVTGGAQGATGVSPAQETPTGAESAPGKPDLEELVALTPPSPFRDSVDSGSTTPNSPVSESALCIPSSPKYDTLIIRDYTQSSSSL
UniProt P23385, 19-1199 limits assumed: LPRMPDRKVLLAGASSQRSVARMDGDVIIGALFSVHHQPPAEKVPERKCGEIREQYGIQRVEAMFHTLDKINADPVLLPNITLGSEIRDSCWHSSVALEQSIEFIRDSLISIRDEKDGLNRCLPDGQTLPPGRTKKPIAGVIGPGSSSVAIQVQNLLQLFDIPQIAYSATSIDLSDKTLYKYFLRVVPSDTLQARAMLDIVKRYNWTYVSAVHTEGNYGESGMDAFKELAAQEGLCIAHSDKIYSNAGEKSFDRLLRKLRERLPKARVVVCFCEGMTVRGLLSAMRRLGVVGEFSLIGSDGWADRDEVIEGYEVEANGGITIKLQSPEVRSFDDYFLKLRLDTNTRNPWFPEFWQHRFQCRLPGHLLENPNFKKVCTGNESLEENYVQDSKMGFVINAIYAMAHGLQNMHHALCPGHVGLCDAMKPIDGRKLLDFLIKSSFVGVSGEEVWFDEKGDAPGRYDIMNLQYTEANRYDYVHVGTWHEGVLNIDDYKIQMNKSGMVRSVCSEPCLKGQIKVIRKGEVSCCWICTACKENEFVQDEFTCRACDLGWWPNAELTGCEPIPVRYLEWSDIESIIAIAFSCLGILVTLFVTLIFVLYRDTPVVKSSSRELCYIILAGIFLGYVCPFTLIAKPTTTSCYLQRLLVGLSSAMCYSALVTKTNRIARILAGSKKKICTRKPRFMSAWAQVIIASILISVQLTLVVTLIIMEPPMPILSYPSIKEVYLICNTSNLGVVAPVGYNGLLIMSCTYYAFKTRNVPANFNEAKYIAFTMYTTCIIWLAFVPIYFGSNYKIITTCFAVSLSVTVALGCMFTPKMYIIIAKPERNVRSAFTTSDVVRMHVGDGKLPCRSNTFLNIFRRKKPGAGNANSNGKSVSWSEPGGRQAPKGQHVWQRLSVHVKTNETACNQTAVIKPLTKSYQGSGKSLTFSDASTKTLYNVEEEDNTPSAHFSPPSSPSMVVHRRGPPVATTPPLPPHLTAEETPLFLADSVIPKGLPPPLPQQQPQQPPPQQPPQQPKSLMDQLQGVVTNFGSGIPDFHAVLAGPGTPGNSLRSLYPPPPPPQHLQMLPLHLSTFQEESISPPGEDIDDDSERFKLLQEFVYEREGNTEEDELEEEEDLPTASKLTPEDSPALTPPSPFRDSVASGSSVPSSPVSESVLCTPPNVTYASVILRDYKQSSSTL

Legend:
mGluR5 = mGluR5 (UniProt P31424); test: mGluR5 receptor binding test ([3H]-M-MPEP displacement); details: read-out: mGlu5 Ki; radioligand [3H]-M-MPEP 2 nM; table does not say rat cerebro-cortical membrane or human mGluR5a A18 cells
rat mGluR1 = rat mGluR1 (Rattus norvegicus, UniProt P23385); test: mGluR1 receptor binding test ([3H]R214127 displacement, rat cerebellar membrane); details: read-out: mGlu1 Ki, radioligand [3H]R214127 3 nM
Description: MGluR1 receptor binding testes were performed according to modified method of Lavreysen et al. (Mol. Pharm., 2003, 63, 1082). Based on the high homology between the human and rat mGluR1 receptors, rat cerebellar membrane preparation was used to determine the binding characteristics of reference compounds and novel compounds to the rat mGluR1. As radioligand [3H]R214127 (3 nM) was used and the nonspecific binding was determined in the presence of 1 μM of R214127.
IC-50 values were determined from displacement curves by nonlinear regression analysis and were converted by equation method of Cheng and Prusoff (Biochem. Pharmacol., 1973, 22, 3099) to Ki values.

SMILES | Ki (mGluR5) | Ki (rat mGluR1)
CN(C(=O)c1sc2ncccc2c1-c1ccc(Cl)cc1)c1ccc(F)cc1 | > 1.5 µM | 0.5 to 1.5 µM
O=C(/C=C/c1cccc(F)c1)c1sc2ncccc2c1-c1ccc(F)cc1 | > 1.5 µM | < 0.5 µM
O=C(Nc1ccc(F)cc1)c1sc2ncccc2c1-c1ccc(Cl)cc1 | > 1.5 µM | > 1.5 µM
O=C(CCc1ccc(F)cc1)c1sc2ncccc2c1-c1ccccc1 | < 0.5 µM | < 0.5 µM
